Laboratory results taken from US11279774B2, “Cyclodextrin dimers, compositions thereof, and uses thereof” (UNDERDOG PHARMACEUTICALS, INC., priority 2019, dated 2022).

Assay: Turbidity assay (in vitro solubility assay), 7KC suspension
Format: physicochemical
Details: 7KC vs cholesterol
Procedure: Greater affinity for one compound than another, e.g., greater affinity for 7KC than cholesterol, may be determined using a “turbidity test” performed on an aqueous suspension containing 3% ethanol, 300uM sterol, in PBS and 1 mM of the cyclodextrin to be tested. This single concentration of cyclodextrin is used in order to standardize the test results. To perform the test, the samples are incubated for 30 mins at 37 C, and then absorbance at 350 nm is measured, e.g., using a spectrophotometer plate reader. Relative turbidity is determined by dividing the measured turbidity in the presence of the cyclodextrin to the baseline turbidity without the cyclodextrin. A given cyclodextrin has greater affinity for 7KC than cholesterol if the relative turbidity of the 7KC suspension is lower than the relative turbidity of the cholesterol solution.

Quaternary Ammonium (βCD-(TRIAZOLE)1-βCD) Dimer [QA CD-Triazole-CD DS 2]
specificity for 7KC over cholesterol (turbidity): specificity for 7KC over cholesterol
